Test results published in patent US20260098097A1.

The chains behind the UniProt entries cited, without tags or fusion partners. Residues count along the entry.
UniProt P28908, 19-595: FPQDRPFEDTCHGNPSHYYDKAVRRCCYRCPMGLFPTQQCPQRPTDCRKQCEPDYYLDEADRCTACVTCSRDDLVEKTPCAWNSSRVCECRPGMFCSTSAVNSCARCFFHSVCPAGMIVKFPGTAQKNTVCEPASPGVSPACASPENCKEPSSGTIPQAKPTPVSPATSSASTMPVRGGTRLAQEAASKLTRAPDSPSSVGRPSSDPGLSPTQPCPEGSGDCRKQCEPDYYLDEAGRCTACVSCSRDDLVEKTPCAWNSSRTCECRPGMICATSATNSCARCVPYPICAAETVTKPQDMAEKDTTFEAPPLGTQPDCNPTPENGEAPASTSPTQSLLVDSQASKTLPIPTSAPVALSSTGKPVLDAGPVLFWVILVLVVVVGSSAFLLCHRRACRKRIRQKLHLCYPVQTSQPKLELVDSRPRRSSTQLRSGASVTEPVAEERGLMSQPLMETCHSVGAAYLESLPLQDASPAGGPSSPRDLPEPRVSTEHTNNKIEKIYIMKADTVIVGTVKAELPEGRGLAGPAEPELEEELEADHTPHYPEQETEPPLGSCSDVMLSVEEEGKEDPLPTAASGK

What was measured:
[1] = target: human CD30 on human CD25+CCR4+CD30+ Hut102/6TG cells (human) (UniProt P28908); test: flow cytometry, Alexa Fluor 488-labeled binder on Hut102/6TG cells, saturation binding fit of MFI
[2] = target: human CD30 on human CD25+CCR4+CD30+ Hut102/6TG cells (human) (UniProt P28908); test: cell-based or functional assay

anti-CD30 antibody-drug conjugate (brentuximab vedotin)
Kd [1]: 2.22 nM
inhibition of viability of Hut102/6TG cells (CellTiter-Glo Luminescent Cell Viability Assay) [2]: 52.1 nM
